# According to paper PMC10103840 (2023):
# What was measured:
# [1] = System adherence test (empty perfusion chamber, maternal circuit only); format: in vitro ADME; details: % of initial concentration, 5 μM in PM, no placental tissue, 240 min, n = 3
# human placental barrier = details: pH 7.2
# BeWo cells = details: ref Spiess et al., 2022b; cited from earlier work
# placental tissue = test: Histopathological evaluation of perfused placentae; design: species or system human
# [2] = non-perfused area of same placenta
smiles,measurement,setting,value
"CC(C)=CCC[C@]1(C)[C@@H](CC=C(C)C)C[C@]2(CC=C(C)C)C(=O)C(CC=C(C)C)=C(O)[C@@]1(C(=O)C(C)C)C2=O [Hyperforin, hyperforin]",Compound lost / adhering to the perfusion equipment,[1],65.4% and 65.4% ± 0.7%
same,Concentration in the fetal compartment,human placental barrier,7.2 % of initial concentration
same,Concentrations inhibiting FSK-induced placental cell differentiation,BeWo cells,≥ 1000 nM
same,Extravasations into villous stroma (in words),placental tissue; after perfusion,no extravasations into villous stroma
same,Ruptures of villous vessels (in words),placental tissue; after perfusion,no ruptures of villous vessels
same,Dilatated intervillous space in non-perfused,placental tissue; [2],60% and 50% and 70% and 80%
same,Hydropic changes in non-perfused,placental tissue; [2],0% and 1%
same,Intervillous spaces without blood in non-perfused,placental tissue; [2],30% and 40% and 60%
same,Vacuolated trophoblast in villi: in non-perfused too?,placental tissue; [2],0% and 1%
same,Thrombi in vessels of stem villi (in words),placental tissue; perfused and non-perfused,no thrombi detectable
same,Dilatated intervillous space,placental tissue; perfused area,90% and 70%
same,Intervillous spaces without blood,placental tissue; perfused area,70% and 95% and 99% and 80%
same,Emptiness of villous vessels,"placental tissue; perfused area, individual experiments",95% (2×) and 90% and 80%

# Where “and” joins values, the source holds several entries; their conditions need not be identical. Equal entries are not always repeated.
